The results in this text go back to PubChem BioAssay AID704 (The Scripps Research Institute Molecular Screening Center, 2007).

Protein sequences, listed by entry. Tags and fused reporters are not part of them.
UniProt P05866, whole entry: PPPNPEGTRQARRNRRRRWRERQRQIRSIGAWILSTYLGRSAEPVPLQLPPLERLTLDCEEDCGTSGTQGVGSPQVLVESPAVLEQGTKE

In general, inhibition refers to the change of the read-out against control, counted positive when it falls.

Structures are written as SMILES. The entries are a selection whose mix differs from that of the whole data set. Some results for these compounds are left out of this collection, so the calls shown say nothing about other tests. Activity calls are given as the source filed them.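 Rule for the calls: active = inhibition above the screen-wide mean plus 3 SD (cut at about 35% in these data); inactive = the rest.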

This assay has as its target Protein Rev (Human immunodeficiency virus type 1 group M subtype B (isolate WMJ22)) (UniProt P05866). In words: HIV-1 Rev-RRE binding inhibitors, primary screen, biochemical, FRET, protein-RNA interaction (AID 704).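 Note: 0% = median DMSO wells and 100% = median Neomycin B control wells.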 As to conditions: Rev peptide-RRE RNA binding, at 8 µM, hits give high values. The gist of the method: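 Material: labelled RRE RNA duplex and labelled Rev peptide / Buffer or medium: HEPES pH 7.5 salt buffer with EDTA / Compound dosing: single point, 8 µM final nominal compound concentration / Benchmarks: DMSO low control, neomycin B high control / Timing: 5 min preincubation and 15 min binding, 25 °C / Technique: FRET fluorescence readout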
In the case of `CC(C)N1C(=O)CC2(CCN(CCOC(=O)C(O)(c3ccccc3)c3ccccc3)CC2)C1=O`, the inhibition is inactive: 4.32%.

In the case of `CN(C)c1cccc(C(=O)NCC2(N(C)C)CCCCC2)c1`, the inhibition was inactive: 6.25%.

For the compound `O=C(OC1CN2CCC1CC2)C(CO)(c1ccccc1)c1ccccc1` (stereo not drawn), the inhibition is inactive: -7.72%.
